Data taken from patent US20240165096A1, “Anti Viral Therapy” (priority 2021, published 2024).
Counter-ions that a name gives are not always drawn.

System: IFNλ

O=C(O)COCCN1CCN([C@H](c2ccccc2)c2ccc(Cl)cc2)CC1 [Levocetirizine Dihydrochloride]
enhancement of cytotoxicity: ~1.5 fold
